The chains behind the UniProt entries cited, without tags or fusion partners.
DNA repair and recombination protein RAD54-like (Homo sapiens), Q92698, UniProt Q92698, whole entry, looked up: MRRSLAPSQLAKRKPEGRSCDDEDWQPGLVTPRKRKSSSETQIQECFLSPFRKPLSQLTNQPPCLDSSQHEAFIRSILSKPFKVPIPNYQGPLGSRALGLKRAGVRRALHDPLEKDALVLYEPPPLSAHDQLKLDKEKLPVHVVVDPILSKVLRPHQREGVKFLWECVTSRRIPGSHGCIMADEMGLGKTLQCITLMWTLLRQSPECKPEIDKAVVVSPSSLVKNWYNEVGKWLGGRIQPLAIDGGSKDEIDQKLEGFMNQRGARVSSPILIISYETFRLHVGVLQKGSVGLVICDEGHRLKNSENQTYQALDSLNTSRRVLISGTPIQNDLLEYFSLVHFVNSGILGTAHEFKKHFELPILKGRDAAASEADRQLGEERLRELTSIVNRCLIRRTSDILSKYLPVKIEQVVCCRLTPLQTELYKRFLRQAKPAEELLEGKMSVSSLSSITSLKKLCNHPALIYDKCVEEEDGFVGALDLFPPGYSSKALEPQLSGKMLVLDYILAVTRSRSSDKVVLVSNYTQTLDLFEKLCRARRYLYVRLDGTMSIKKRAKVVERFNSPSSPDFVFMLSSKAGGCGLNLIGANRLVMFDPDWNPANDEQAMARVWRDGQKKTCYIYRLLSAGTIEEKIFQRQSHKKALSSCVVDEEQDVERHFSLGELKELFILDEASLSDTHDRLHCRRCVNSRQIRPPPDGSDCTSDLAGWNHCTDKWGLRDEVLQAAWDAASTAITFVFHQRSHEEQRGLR

# Screens as filed in PubChem.
# E-sel inducer: E-selectin induction in HUVECs, primary screen, imaging, HUVEC, immunofluorescence imaging, single point. 0.37% of 260,000 active. activation, % at 7.58 µM. normalized: neutral wells 0, TNF-alpha wells 100. P16581;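 active = mean E-selectin-positive cell signal at least 10% of the positive control, reached in at least 60% of replicates, without over 20% cell loss; inconclusive = no rule given, readout overlaps actives, possibly toxicity-flagged; inactive = the rest, including those meeting only one limit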
#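 Test system – human umbilical vein endothelial cells (HUVEC), E-selectin induction · Input – 3,000 HUVEC seeded per well · Buffer or medium – EGM-2, gelatin · Compound dosing – single-point compound dose · Detection – immunofluorescence imaging · Measure – percent E-selectin-positive cells · Controls – TNF-alpha high, DMSO low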
# RAD54 branch: inhibitors of human RAD54 branch migration, primary screen, biochemical, fluorescence, single point; DNA repair and recombination protein RAD54-like (Homo sapiens), Q92698; RAD54 Holliday junction branch migration, FAM/BHQ fluorescence; inhibition, % at 10.4 µM; 0.14% of 360,000 active; AID 602329, 2012;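 active = mean normalized replicate activity at least 40 and at least half of replicates scoring 40 or more; inconclusive = only one of the two criteria met; inactive = mean below 40 and under half of replicates reaching 40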;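 note: 0% = median of neutral control wells and 100% = median of positive control wells; inhibitors cause a drop in the FAM fluorescence signal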
# Yeast UUG start: modulators of yeast start codon fidelity, primary screen, whole organism, S. cerevisiae, single point, plate reader; S. cerevisiae UUG-firefly luciferase reporter, luminescence/redox ratio; activity score, % at 18.7 µM; actives 0.13% (n = 350,000); AID 602363, 2012;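 active = replicate mean at a twofold rise or more, about +100% in these data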;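 also: firefly luciferase made from a UUG start codon reports start codon fidelity; reporter light over untreated wells divided by growth signal over untreated wells; some hits fall short of that in this replicate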
# RAD52 inh: RAD52 DNA annealing inhibitors, primary screen, biochemical, FRET, single point, set 2 | DNA repair protein RAD52 homolog (Homo sapiens), P43351 | recombinant RAD52 DNA annealing, FRET fluorescence | 0.46% of 360,000 active | inhibition, % at 18.7 µM;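 active = every replicate showing at least 50% inhibition; inconclusive = mean inhibition at least 50% but not in every replicate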
# AF4-AF9 inh: inhibitors of AF4 peptide binding to AF9, primary screen, biochemical, AlphaScreen, biotin-AF4 peptide, FLAG-AF9, single point. inhibition, % at 10 µM. 0.47% of 350,000 active. AID 651704, 2012;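 active = every replicate reaching a set inhibition limit, whatever the replicate mean, cut at about 25% in these data; inconclusive = mean inhibition reaches that limit but some replicates miss it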;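 note: 0% = plate neutral control median and 100% = total signal loss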
# SIRT5 block: SIRT5 desuccinylase inhibitors, primary screen, biochemical, fluorescence imaging, single point, set 5 | 1.1% of 330,000 active | NAD-dependent protein deacylase sirtuin-5, mitochondrial (Homo sapiens), Q9NXA8 | Purified SirT5, succinyl-peptide AMC, trypsin-coupled fluorescence | AID 652115, 2013 | inhibition, % at 15 µM; in the data active = inhibition above about 15%; inconclusive = no clear call, values can overlap the other calls
# RAD52 DNA ctr: DNA-binding compounds via dye displacement, dose response, artefact control for RAD52 inhibitor project, biochemical, fluorescence polarization, cherry-pick | shares compounds with RAD52 inh | Salmon sperm DNA/acridine orange FP displacement | AC50, µM | 8% of 1,000 active | AID 652128, 2013;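 active = fitted half-maximal concentration for signal loss at or below twice the highest dose tested, in every separate run, actives reach about 64 µM in these data; inconclusive = runs disagree, or flat partial signal loss, or poor fit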
# Starred values were filed as active, the others as inactive; i = inactive; ? = inconclusive; nt = no result given. An excerpt weighted towards active compounds, which were near 1.8% of everything screened.
# Short keys – A = E-sel inducer; B = RAD54 branch; C = Yeast UUG start; D = RAD52 inh; E = AF4-AF9 inh; F = SIRT5 block; G = RAD52 DNA ctr
smiles: Cc1noc(C)c1S(=O)(=O)Nc1ccc2c(c1)C(=O)N([C@H](C)CO)C[C@H](C)[C@@H](CN(C)S(=O)(=O)c1cccs1)O2
  A = 0 | B = nt | C = nt | D = 5 | E = -4 | F = -6 | G = nt

smiles: COc1ccc2c3c([nH]c2c1)[C@H](CO)N(Cc1ccc(F)cc1)CC31CN(Cc2ccccn2)C1
  A = 0 | B = nt | C = nt | D = 20 | E = 3 | F = 4 | G = nt

smiles: COc1ccc(NC(=O)CCN2CCN(c3ccc(F)cc3)CC2)cc1
  A = 0 | B = -6 | C = -12 | D = -8 | E = 0 | F = -3 | G = i

smiles: CCOc1ccc(NC(=O)CCN2CCN(c3ccccc3)CC2)cc1
  A = nt | B = 13 | C = -12 | D = nt | E = nt | F = nt | G = nt

smiles: Cc1cc(C)c2nc(C)cc(N/N=C/c3ccc(O)cc3)c2c1
  A = nt | B = 119* | C = -16 | D = 94* | E = 26* | F = 3 | G = ?

smiles: Cc1cc(N/N=C/c2ccc(O)cc2)c2cccc(C)c2n1
  A = nt | B = 118* | C = -2 | D = 77* | E = ? | F = 21* | G = 52µM*

smiles: Cc1cc(N/N=C/c2ccc(N(C)C)cc2)c2ccccc2n1
  A = nt | B = -7 | C = -19 | D = -207 | E = -3 | F = -1 | G = nt

smiles: COc1ccc(CN(C)C[C@H]2Oc3ccc(NS(=O)(=O)c4cn(C)cn4)cc3CC(=O)N([C@@H](C)CO)C[C@H]2C)cc1
  A = -18 | B = -9 | C = 11 | D = -1 | E = 1 | F = 0 | G = nt

smiles: CN(C)C(=O)C[C@@H]1CC[C@H]2[C@@H](COc3ccc(NC(=O)c4cnccn4)cc3C(=O)N2C)O1
  A = 0 | B = -9 | C = -9 | D = 1 | E = 0 | F = 3 | G = nt

smiles: COC(=O)C1=CN(Cc2ccc(C)cc2)C=C(C(=O)OC)C1c1cc(OC)c(OC)c(OC)c1
  A = 0 | B = 2 | C = -8 | D = 95* | E = -17 | F = -4 | G = i

smiles: COc1cc2c(cc1OC)C(c1ccccc1N)=NCC2
  A = 0 | B = 26 | C = 0 | D = 61* | E = nt | F = 1 | G = i

smiles: COc1cc2c(cc1OC)C(c1ccccc1)=NCC2
  A = -1 | B = -1 | C = 1 | D = -6 | E = 0 | F = 0 | G = nt

# Profiles from above. Values in the order: E-sel inducer	RAD54 branch	Yeast UUG start	RAD52 inh	AF4-AF9 inh	SIRT5 block	RAD52 DNA ctr
# Cc1cc(N/N=C/c2ccc(O)cc2)c2cccc(C)c2n1 in the list: nt	118*	-2	77*	?	21*	52µM*
# COc1ccc(NC(=O)CCN2CCN(c3ccc(F)cc3)CC2)cc1 in the list: 0	-6	-12	-8	0	-3	i
